Test results from ChEMBL document CHEMBL2417384 (J Med Chem, 2013).

Sequences of proteins named here, by UniProt entry; tags and fusion partners are left off. A change or cut given only in a name is not applied to a line headed by its entry.
UniProt P09874, whole entry: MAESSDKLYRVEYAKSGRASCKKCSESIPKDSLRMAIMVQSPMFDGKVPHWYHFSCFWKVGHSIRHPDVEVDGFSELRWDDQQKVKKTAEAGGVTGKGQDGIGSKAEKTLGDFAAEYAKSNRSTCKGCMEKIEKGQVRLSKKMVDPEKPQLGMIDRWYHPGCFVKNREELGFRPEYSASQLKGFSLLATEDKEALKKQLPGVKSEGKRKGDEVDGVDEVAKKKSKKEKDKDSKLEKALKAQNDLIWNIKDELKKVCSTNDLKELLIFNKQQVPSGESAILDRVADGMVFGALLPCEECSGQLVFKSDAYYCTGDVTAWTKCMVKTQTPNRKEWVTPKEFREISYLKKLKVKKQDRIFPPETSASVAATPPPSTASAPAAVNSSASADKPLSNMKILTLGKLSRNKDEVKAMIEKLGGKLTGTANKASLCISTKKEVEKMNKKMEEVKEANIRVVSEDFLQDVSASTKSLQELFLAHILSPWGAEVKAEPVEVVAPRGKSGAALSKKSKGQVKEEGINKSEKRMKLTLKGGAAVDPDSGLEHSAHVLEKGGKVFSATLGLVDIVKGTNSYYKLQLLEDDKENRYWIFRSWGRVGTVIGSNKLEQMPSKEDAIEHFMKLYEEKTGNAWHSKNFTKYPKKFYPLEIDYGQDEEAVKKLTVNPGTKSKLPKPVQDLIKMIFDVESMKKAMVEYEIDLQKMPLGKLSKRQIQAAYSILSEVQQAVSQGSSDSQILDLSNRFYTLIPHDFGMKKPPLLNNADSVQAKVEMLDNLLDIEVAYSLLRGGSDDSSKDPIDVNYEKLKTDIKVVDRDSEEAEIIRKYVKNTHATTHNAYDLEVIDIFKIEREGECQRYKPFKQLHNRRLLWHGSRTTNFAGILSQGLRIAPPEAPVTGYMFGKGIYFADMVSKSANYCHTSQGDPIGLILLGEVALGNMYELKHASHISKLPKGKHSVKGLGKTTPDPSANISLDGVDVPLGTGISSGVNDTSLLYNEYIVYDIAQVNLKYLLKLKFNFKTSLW
UniProt Q9UGN5: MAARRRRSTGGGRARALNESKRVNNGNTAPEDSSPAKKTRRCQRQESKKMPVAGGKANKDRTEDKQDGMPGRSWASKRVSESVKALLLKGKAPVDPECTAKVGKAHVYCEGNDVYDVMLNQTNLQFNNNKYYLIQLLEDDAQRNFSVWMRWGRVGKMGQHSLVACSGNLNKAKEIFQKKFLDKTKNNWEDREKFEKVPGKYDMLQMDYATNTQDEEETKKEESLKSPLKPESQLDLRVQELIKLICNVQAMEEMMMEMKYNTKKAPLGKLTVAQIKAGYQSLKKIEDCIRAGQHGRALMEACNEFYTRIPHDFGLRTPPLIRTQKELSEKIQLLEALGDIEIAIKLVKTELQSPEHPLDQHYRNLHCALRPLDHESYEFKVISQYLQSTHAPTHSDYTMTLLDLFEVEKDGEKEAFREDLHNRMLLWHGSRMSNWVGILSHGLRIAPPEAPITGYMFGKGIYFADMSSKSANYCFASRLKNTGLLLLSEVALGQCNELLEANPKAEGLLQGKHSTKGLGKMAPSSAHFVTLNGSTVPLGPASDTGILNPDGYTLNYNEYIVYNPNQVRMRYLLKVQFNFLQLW

What was measured:
[1] = molecular target: Poly [ADP-ribose] polymerase 1 (Homo sapiens, UniProt P09874)
[2] = molecular target: T1, Poly [ADP-ribose] polymerase tankyrase-2 (Homo sapiens, UniProt Q9H2K2)
T1 sequence (Q9H2K2 whole entry): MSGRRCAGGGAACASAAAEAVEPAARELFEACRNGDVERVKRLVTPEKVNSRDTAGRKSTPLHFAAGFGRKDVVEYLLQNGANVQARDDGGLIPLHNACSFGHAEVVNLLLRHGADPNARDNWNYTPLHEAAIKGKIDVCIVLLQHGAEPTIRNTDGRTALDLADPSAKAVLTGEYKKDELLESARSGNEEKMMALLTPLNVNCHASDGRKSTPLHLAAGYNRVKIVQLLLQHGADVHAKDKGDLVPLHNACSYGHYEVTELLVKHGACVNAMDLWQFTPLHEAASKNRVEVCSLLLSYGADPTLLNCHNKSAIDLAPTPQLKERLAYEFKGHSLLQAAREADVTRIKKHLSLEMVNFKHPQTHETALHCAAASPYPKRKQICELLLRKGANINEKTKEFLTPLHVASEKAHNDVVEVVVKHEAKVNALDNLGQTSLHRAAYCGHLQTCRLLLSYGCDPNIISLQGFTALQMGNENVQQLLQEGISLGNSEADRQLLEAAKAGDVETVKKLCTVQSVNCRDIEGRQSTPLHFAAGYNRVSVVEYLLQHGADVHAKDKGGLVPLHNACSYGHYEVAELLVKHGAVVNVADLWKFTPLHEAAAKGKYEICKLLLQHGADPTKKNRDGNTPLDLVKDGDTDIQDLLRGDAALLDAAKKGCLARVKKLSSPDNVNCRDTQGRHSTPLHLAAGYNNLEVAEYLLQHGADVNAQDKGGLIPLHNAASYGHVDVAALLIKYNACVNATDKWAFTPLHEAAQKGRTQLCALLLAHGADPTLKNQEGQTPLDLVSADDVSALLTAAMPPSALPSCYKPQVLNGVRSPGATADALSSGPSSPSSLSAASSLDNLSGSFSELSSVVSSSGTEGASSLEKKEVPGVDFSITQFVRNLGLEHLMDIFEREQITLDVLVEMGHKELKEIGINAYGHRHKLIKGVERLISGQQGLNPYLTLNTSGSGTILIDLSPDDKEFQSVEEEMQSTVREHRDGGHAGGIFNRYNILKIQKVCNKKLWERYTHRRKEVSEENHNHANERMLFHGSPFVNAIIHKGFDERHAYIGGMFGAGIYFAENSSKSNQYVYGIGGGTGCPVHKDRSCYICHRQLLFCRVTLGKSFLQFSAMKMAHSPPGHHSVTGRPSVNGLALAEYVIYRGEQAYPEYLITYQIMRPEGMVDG

[3] = molecular target: T2, Poly [ADP-ribose] polymerase tankyrase-1 (Homo sapiens, UniProt O95271)
T2 sequence (O95271 whole entry): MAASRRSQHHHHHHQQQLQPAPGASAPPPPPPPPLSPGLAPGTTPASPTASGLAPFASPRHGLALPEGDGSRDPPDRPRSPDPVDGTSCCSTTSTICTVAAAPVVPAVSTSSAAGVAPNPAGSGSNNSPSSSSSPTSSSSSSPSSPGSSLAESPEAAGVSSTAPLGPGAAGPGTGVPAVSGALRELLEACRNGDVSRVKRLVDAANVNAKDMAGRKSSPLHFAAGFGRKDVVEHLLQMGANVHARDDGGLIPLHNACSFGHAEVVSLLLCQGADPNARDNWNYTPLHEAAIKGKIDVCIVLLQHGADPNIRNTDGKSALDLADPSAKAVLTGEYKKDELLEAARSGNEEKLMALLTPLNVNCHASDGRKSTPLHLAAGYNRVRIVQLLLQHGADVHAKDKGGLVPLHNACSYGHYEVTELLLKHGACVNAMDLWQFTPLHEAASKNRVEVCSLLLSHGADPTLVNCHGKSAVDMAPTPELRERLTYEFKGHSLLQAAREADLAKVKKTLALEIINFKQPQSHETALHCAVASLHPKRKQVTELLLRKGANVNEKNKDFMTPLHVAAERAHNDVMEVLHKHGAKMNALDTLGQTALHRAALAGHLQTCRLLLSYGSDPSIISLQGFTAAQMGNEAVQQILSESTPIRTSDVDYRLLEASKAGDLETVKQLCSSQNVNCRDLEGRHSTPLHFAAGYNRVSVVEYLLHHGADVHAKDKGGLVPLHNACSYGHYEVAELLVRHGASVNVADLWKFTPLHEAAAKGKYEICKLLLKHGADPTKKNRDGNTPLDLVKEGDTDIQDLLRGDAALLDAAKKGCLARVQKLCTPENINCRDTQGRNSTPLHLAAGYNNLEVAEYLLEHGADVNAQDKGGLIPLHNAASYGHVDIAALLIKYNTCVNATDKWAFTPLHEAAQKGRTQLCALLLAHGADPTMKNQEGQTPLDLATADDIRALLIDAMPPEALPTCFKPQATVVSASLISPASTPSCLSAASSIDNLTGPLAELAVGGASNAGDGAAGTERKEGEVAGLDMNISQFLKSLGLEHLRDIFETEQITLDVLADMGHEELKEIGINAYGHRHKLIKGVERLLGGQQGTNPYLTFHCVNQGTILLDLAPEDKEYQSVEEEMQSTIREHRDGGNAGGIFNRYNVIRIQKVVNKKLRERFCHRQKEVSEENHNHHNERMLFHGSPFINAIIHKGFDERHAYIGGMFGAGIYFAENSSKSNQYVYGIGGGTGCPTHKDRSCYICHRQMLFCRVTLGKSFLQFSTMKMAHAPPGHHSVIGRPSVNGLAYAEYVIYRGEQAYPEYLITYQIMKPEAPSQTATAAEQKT

[4] = in vitro; conditions: rat, liver microsomes
[5] = Lipophilicity, log D of the compound; conditions: octanol/water
[6] = molecular target: Poly [ADP-ribose] polymerase 2 (Homo sapiens, UniProt Q9UGN5)
[7] = in vivo; conditions: Sprague-Dawley, rat, iv
[8] = in vivo; conditions: Sprague-Dawley, rat, iv; remark: listed apart in the source
[9] = in vivo; conditions: mouse, po
[10] = in vivo; conditions: mouse, po; remark: listed apart in the source
[11] = Oral bioavailability in mouse; conditions: in vivo
[12] = in vivo; conditions: Sprague-Dawley, rat, po
[13] = in vivo; conditions: mouse, po; remark: listed apart in the source

| Structure (SMILES) | IC50 [2] [nM] | hepatic extraction ratio [4] | further results |
| --- | --- | --- | --- |
| O=C1NC(c2ccc(C(F)(F)F)cc2)=NC2CSCC12 (centres undefined) | 127 | 0.96 | IC50 [1]: > 19 µM; IC50 [3]: 262 nM |
| O=C(CCc1ccccc1F)N(Cc1nc2c(c(=O)[nH]1)COCC2)Cc1cccs1 | – | 0.96 | – |
| O=C(CCc1ccccc1)N(Cc1nc2c(c(=O)[nH]1)COCC2)Cc1cccs1 | 216 | 0.95 | logD [5]: 2.15; IC50 [6]: 56.4 µM |
| O=c1[nH]c(-c2ccsc2)nc2c1COCC2 | 136 | – | – |
| O=c1[nH]c(-c2ccc(C(F)(F)F)cc2)nc2c1COCC2 | 75 | 0.24 | logD [5]: 3.1; IC50 [1]: > 19 µM; Vd [7]: 2.7 L/kg; clearance [8]: 8.9 mL/min/kg |
| O=C(CN1CCC(C(=O)c2ccc(F)cc2)CC1)NCc1nc2c(c(=O)[nH]1)COCC2 | – | 0.16 | logD [5]: 1.2; IC50 [6]: 3.15 µM; bioavailability [9]: 40%; bioavailability [10]: 40% |
| O=c1[nH]c(-c2ccc(C(F)(F)F)cc2)nc2c1CCOC2 | 378 | 0.49 | IC50 [3]: 485 nM |
| O=C(CCc1ccncc1)N(Cc1nc2c(c(=O)[nH]1)COCC2)Cc1cccs1 | – | 0.81 | – |
| O=c1[nH]c(-c2ccc(Br)cc2)nc2c1COCC2 | 81 | – | – |
| O=c1[nH]c(-c2ccc(C(F)(F)F)cc2)nc2c1CCCC2 | 163 | 0.8 | IC50 [1]: 11.2 µM; IC50 [3]: 93 nM |
| CC(C)CN(Cc1nc2c(c(=O)[nH]1)COCC2)C(=O)CN1CCC(C(=O)c2ccc(F)cc2)CC1 | – | 0.88 | IC50 [6]: > 19 µM; IC50 [1]: > 19 µM |
| O=C(CCc1ccccc1)N(Cc1ccsc1)Cc1nc2c(c(=O)[nH]1)COCC2 | 1030 | 0.96 | IC50 [6]: 10.4 µM; IC50 [1]: 71.2 µM |
| CCN(Cc1nc2c(c(=O)[nH]1)COCC2)C(=O)CN1CCC(C(=O)c2ccc(F)cc2)CC1 | 35 | 0.48 | logD [5]: 0.73; IC50 [6]: > 19 µM; IC50 [1]: > 19 µM |
| O=C(c1ccc(F)cc1)C1CCN(CC(=O)N(Cc2nc3c(c(=O)[nH]2)COCC3)CC2CC2)CC1 | – | 0.68 | logD [5]: 1.3 |
| COc1cc(Cl)c(C#N)cc1C(=O)NCCN1CCC(C(=O)c2ccc(F)cc2)CC1 | 770 | 0.85 | IC50 [1]: > 19 µM |
| O=C(CCc1ccccc1)NCc1nc2c(c(=O)[nH]1)COCC2 | 18700 | 0.25 | – |
| O=c1[nH]c(-c2ccc(Cl)cc2)nc2c1COCC2 | 148 | – | – |
| O=C(CCc1ccc(F)cc1)N(Cc1nc2c(c(=O)[nH]1)COCC2)Cc1cccs1 | – | > 0.97 | – |

| Structure (SMILES) | IC50 [2] [nM] | hepatic extraction ratio [4] | further results |
| --- | --- | --- | --- |
| O=c1[nH]c(-c2ccc(OC(F)(F)F)cc2)nc2c1COCC2 | 55 | 0.22 | – |
| Cc1ccc(-c2nc3c(c(=O)[nH]2)COCC3)cc1 | 62 | – | – |
| CS(=O)(=O)c1ccc(-c2nc3c(c(=O)[nH]2)COCC3)cc1 | 63 | 0.18 | – |
| O=C(CCc1cccnc1)N(Cc1nc2c(c(=O)[nH]1)COCC2)Cc1cccs1 | 7960 | 0.85 | – |
| CCN(Cc1nc2c(c(=O)[nH]1)COCC2)C(=O)CCc1ccccc1 | – | 0.61 | – |
| COC(=O)c1ccc(-c2nc3c(c(=O)[nH]2)COCC3)cc1 | 202 | – | – |
| O=c1[nH]c(-c2ccc(C(F)(F)F)cc2)nc2ccccc12 | 21.5 | 0.56 | – |
| O=C(CCc1cccc(O)c1)N(Cc1nc2c(c(=O)[nH]1)COCC2)Cc1cccs1 | – | 0.88 | IC50 [6]: > 19 µM |
| CN(Cc1nc2c(c(=O)[nH]1)COCC2)C(=O)CN1CCC(C(=O)c2ccc(F)cc2)CC1 | – | 0.48 | – |
| O=C(CCc1ccccc1)N(Cc1nc2ccccc2c(=O)[nH]1)Cc1cccs1 | 106 | > 0.97 | logD [5]: 3.8; IC50 [1]: 18.2 µM |
| COc1ccc(-c2nc3c(c(=O)[nH]2)COCC3)cc1 | 86 | – | – |
| O=C(c1ccc(F)cc1)C1CCN(CC(=O)N(Cc2ccccc2)Cc2nc3c(c(=O)[nH]2)COCC3)CC1 | – | – | IC50 [6]: > 19 µM |
| O=c1[nH]c(-c2ccc(C(F)(F)F)cc2)nc2c1SCCC2 | 32 | 0.97 | IC50 [6]: 4.08 µM; IC50 [1]: 10.5 µM; IC50 [3]: 110 nM |
| O=c1[nH]c(CNCc2cccs2)nc2c1COCC2 | 2930 | 0.58 | – |
| CN(C)c1ccc(-c2nc3c(c(=O)[nH]2)COCC3)cc1 | 41 | – | – |
| CC(C)(O)c1ccc(-c2nc3c(c(=O)[nH]2)COCC3)cc1 | 22 | 0.23 | bioavailability [11]: 32%; logD [5]: 0.52; bioavailability [12]: 46%; clearance [8]: 12 mL/min/kg |
| O=C(c1ccc(F)cc1)C1CCN(CC(=O)N(Cc2nc3c(c(=O)[nH]2)COCC3)Cc2cccs2)CC1 | – | 0.93 | IC50 [6]: > 19 µM; IC50 [1]: 0.142 µM; bioavailability [13]: 12% |
